pIC50: −log10 of the molar value.
Tested on: synaptosomal uptake of serotonin (5-HT)
Experiment: Inhibition of synaptosomal serotonin (14C-5-HT) uptake
Format: biochemical
Conditions: synaptosomal uptake of 14C-5-HT, read-out: 5-HT uptake, inhibitory concentration at which the rate of uptake was reduced to 50 percent (IC50)

## CNCCC(Oc1ccc(C(F)(F)F)cc1)c1ccccc1 (stereo not shown) [Fluoxetine, reference compound]
  pIC50: 6.85

— patent US4609758A, “Phenoxyethylamine derivatives” (American Home Products Corporation, priority 1985, dated 1986)
